Patent US20220088204A1, “ANTICANCER DRUGS AND METHODS OF MAKING AND USING SAME” (YALE UNIVERSITY, priority 2019, published 2022)

Columns and labels:
[1] = test system: MDA-MB-231 breast cancer cells; experiment: pH-dependent cell growth inhibition, CellTiter-Glo; type: cell-based, Human; settings: 6 hours treatment, 72 hours growth
Protocol: FIG. 6 depicts pH-dependent cell growth inhibition of MDA-MB-231 breast cancer cells in culture, treated transiently with Drug (in this case doxorubicin HCl) or various prodrugs of the invention. Cells treated for 6 hours at pH 7.4 (normal physiological pH, X traces) or pH 6.2 (acidic solid tumor pH, Y traces) were subsequently allowed to grow in normal growth medium for 72 hours, then cell viability was evaluated using the CellTiter-Glo assay kit (Promega). Normalized percent cell growth inhibition is plotted on the left side of each panel and IC50 values reported at each pH from non-linear regression analysis.
In order to evaluate pH-dependent activity, treatments are performed at atypical cell culture conditions. […] Several cell lines have been evaluated using this method and for each, cell seeding density and treatment duration is independently experimentally determined. Each experiment is normalized to sham and complete activity controls for each pH condition.
Human MDA-MB-231 breast cancer cells seeded at low density on tissue culture treated 384-well plates, allowed to adhere and grow in serum-supplemented growth medium for 24 hours, then treated under pH-controlled conditions for 6 hours, and finally washed and grown in fresh growth media for 72 hours were assessed for cell survival using the CellTiter-Glo assay system (Promega) (FIG. 6).

[2] = following intravenous injection; cited from earlier work

COc1cccc2c1C(=O)c1c(O)c3c(c(O)c1C2=O)C[C@@](O)(C(=O)CO)C[C@@H]3O[C@H]1C[C@H](N)[C@H](O)[C@H](C)O1 [doxorubicin, reference compound]
fold lower IC50 value in cells treated at pH 7.4 than at pH 6.2 [1]: > 15 fold
t1/2 of distribution from the blood into tissues [2]: ~5 min
